Measured values: article PMC10605449 (Biosensors, 2023)

By UniProt entry, the sequences of proteins in these tests, tags left out. Residues count along the entry.
UniProt P46937, 2-268: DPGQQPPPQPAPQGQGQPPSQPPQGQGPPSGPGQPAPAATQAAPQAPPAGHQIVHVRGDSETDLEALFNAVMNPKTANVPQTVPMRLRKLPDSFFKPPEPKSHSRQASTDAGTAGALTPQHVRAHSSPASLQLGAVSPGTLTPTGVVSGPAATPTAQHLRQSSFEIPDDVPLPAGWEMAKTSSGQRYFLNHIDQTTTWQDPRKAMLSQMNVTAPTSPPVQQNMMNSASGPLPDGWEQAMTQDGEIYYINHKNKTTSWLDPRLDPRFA

Tests used:
[1] = target: T1, Cellular biotinylated Yes-associated protein, His6-YAP(2-268)-AviTag (UniProt P46937-2 2-268, biotin on the AviTag (BirA, in the cells)); assay: SPR; cellular biotinylated YAP(2-268) captured from soluble cell lysate (200 RU) on neutravidin-coated CM5 chip; TEAD1 apo-form injected, 10 concentrations, 2-fold series from 3 µM; 20 mM Tris-HCl pH 7.4, 150 mM NaCl, 5 mM MgCl2, 0.1 mM EGTA, 0.05% CHAPS; 15 °C; 1:1 Langmuir fit; conditions: one partner purified
T1 construct: Yes-associated protein (YAP), residues 2-268; Captured from the lysate on a neutravidin-coated CM5 chip by the biotinylated AviTag; also called cellular biotinylated YAP(2-268); source: E. coli BL21 Star (DE3) pRARE2, co-expressed with BirA-FLAG and D-biotin, in cleared lysate (desalted, not purified); not shown: His6, N-terminal, kept; AviTag, C-terminal, kept

[2] = target: T1, Cellular biotinylated Yes-associated …; assay: SPR; as a2, but TEAD1 incubated for 18 h at 30 °C with saturating 30 µM TED-347 (small molecule, lipidation pocket) before injection over YAP(2-268) captured from lysate; 15 °C; conditions: one partner purified

B1: Transcriptional enhancer factor TEF (TEAD1), TEAD1(209-426) (domain or fragment, UniProt P28347 209-426, looked up)
chain: RSIGTTKLRLVEFSAFLEQQRDPDSYNKHLFVHIGHANHSYSDPLLESVDIRQIYDKFPEKKGGLKELFGKGPQNAFFLVKFWADLNCNIQDDAGAFYGVTSQYESSENMTVTCSTKVCSFGKQVVEKVETEYARFENGRFVYRINRSPMCEYMINFIHKLKHLPEKYMMNSVLENFTILLVVTNRDTQETLLCMACVFEVSNSEHGAQHHIYRLVKD
notes: TEAD1, residues 209-426; also called TEAD1(209-436); TEAD1 apo-form
[1]
  Kd: 45 nM
  koff: 0.08 s⁻¹
  kon: 1.8e+06 M⁻¹ s⁻¹
[2]
  Kd: 300 nM
  koff: 0.34 s⁻¹
  kon: 1.2e+06 M⁻¹ s⁻¹
